# scFv variants of Ab-91 (heavy chain) against a SARS-CoV-2 spike peptide

Data: MIT Lincoln Laboratory AlphaSeq set, Engelhart et al. 2022, doi:10.1038/s41597-022-01779-4, as distributed in FLAb.

Target: peptide PDVDLGDISGINAS, taken from heptad repeat 2 (HR2) of SARS-CoV-2 spike.

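The parent was found by panning a naive human phage display library on the peptide. Library AAYL51 holds single substitutions and randomly drawn double and triple substitutions in the CDRs. In AlphaSeq, yeast of one mating type display the scFv and yeast of the other type display the target. The frequency of each diploid, read from paired DNA barcodes, reflects how well the two displayed proteins bind. A regression on co-assayed BCL2-family reference pairs converts the normalised counts of each replicate to an apparent Kd. The assay was run in three technical replicates.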

Parent scFv Ab-91: VL joined to VH by the linker GGGGSGGGGSGGGGS. Changes lie in the heavy chain CDRs alone.
VL: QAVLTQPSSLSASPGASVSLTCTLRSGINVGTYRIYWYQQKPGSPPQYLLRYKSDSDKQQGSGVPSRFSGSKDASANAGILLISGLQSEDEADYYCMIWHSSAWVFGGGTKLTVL
VH: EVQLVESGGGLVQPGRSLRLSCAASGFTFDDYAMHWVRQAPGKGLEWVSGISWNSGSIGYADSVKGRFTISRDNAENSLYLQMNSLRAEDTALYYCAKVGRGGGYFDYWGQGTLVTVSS

Substitutions are numbered in sequence along the VH above, starting at 1 (not Kabat). Affinities are written as log10 Kd with Kd in nM; a lower number is a better binder. A mean of the replicates is given; it leaves out those without a signal. An entry "no signal" has no value in the source: the pair was not observed among the diploids in any replicate. This suggests poor binding but is not conclusive.

| log10 Kd (nM), mean | seen in | changes |
|---|---|---|
| no signal | 0/3 | G26M M34T G59P |
| 5.18 | 1/3 | S55N S57E G103L |
| no signal | 0/3 | G26F F27H G102K |
| 1.32 | 3/3 | N54S G100E F106G |
| 4.06 | 1/3 | G102I D107K |
| no signal | 0/3 | D31A I58G A61N |
| 5.23 | 3/3 | H35E S52Y Y108M |
| no signal | 0/3 | I51S K65E |
| 1.75 | 3/3 | S57C I58V |
| 4.28 | 1/3 | A33C N54S R101T |
| no signal | 0/3 | S52W W53P G100R |
| 4.67 | 1/3 | M34G H35R Y108V |
| 1.46 | 3/3 | Y60I G104C Y108R |
| no signal | 0/3 | A33F S55A D62V |
| 1.83 | 3/3 | A61C G104M D107P |
| 6.08 | 2/3 | S63G K65R G100E |
| 4.64 | 3/3 | Y60Q V99R G100S |
| no signal | 0/3 | D30W A61R G100Q |
| no signal | 0/3 | N54H I58V V64R |
| no signal | 0/3 | G102Q G103K |
| no signal | 0/3 | G26P F106N |
| 6.05 | 2/3 | D31H H35Q D107S |
| 4.75 | 1/3 | G26P W53Y V99F |
| no signal | 0/3 | T28E G50A G100I |
| 3.07 | 3/3 | G56I K65Q |
| no signal | 0/3 | A61L V64Q Y105P |
| 5.13 | 2/3 | D30L V99F |
| 3.95 | 1/3 | T28R I51E S63R |
| 1.53 | 3/3 | D31H Y32A G104C |
| no signal | 0/3 | S55F D62H S63V |
| no signal | 0/3 | M34P H35T S63K |
| no signal | 0/3 | D30P M34P Y105S |
| no signal | 0/3 | A33T G102R |
| 4.56 | 3/3 | S57H V64A Y105E |
| no signal | 0/3 | D30Y H35K G103S |
| no signal | 0/3 | I51H S57Y Y60W |
| 4.91 | 2/3 | W53L Y60P |
| 4.20 | 2/3 | M34A W53K G59L |
| no signal | 0/3 | F29G Y60H D107S |
| 4.35 | 2/3 | F29Q I51L S63W |
| no signal | 0/3 | H35R S55E G100T |
| 4.72 | 1/3 | S52A G59P |
| 1.02 | 3/3 | G102C G103Y Y105G |
| 4.36 | 2/3 | N54F D62Q V99R |
| no signal | 0/3 | A33I I51N S55K |
| 3.06 | 3/3 | I58M V99Q G100E |
| 2.20 | 3/3 | D31I I58R K65L |
| 1.02 | 3/3 | D31M A33P V99K |
| 5.03 | 2/3 | D30G G59Q Y60L |
| no signal | 0/3 | I51Y S57Q R101I |
| 5.37 | 1/3 | T28M F29Q G59E |
| 0.91 | 3/3 | D30P R101K Y108I |
| 0.31 | 3/3 | W53P G103I G104F |
| 5.35 | 1/3 | F29C I58N |
| no signal | 0/3 | Y32N G50W |
| 6.09 | 2/3 | T28K G59Y |
| 4.04 | 1/3 | G50F S52L G59P |
| no signal | 0/3 | G59I D62K V99T |
| no signal | 0/3 | G26D Y60I |
| 4.49 | 1/3 | A33H I58L F106Y |
| no signal | 0/3 | F27V G56L Y108T |
| 1.98 | 3/3 | D30N I58Y G104Y |
| no signal | 0/3 | M34H N54M G59T |
| no signal | 0/3 | T28Y S57W S63G |
| no signal | 0/3 | F27N T28Q V99R |
| 4.55 | 2/3 | H35M W53I V99L |
| 4.98 | 3/3 | I58Y G102W |
| no signal | 0/3 | S57Q D62W D107Y |
| no signal | 0/3 | A61F D62H G104E |
| 5.33 | 1/3 | A61W F106V |

The first 6 entries again:

{"changes": "G26M M34T G59P", "log10 Kd (nM), mean": "no signal", "seen in": "0/3"}
{"changes": "S55N S57E G103L", "log10 Kd (nM), mean": "5.18", "seen in": "1/3"}
{"changes": "G26F F27H G102K", "log10 Kd (nM), mean": "no signal", "seen in": "0/3"}
{"changes": "N54S G100E F106G", "log10 Kd (nM), mean": "1.32", "seen in": "3/3"}
{"changes": "G102I D107K", "log10 Kd (nM), mean": "4.06", "seen in": "1/3"}
{"changes": "D31A I58G A61N", "log10 Kd (nM), mean": "no signal", "seen in": "0/3"}

As a blank, each scFv also met three strains without target: over library AAYL51, 21% of these pairings were detected, typically at 4.54 and seldom below 3.26.